# From BindingDB's records for doi:10.1016/0006-2952(93)90073-6 (Janssen Research Foundation, 1993)
# Amino acid sequences for entries named in this document (tags omitted).
# UniProt P08908, whole entry: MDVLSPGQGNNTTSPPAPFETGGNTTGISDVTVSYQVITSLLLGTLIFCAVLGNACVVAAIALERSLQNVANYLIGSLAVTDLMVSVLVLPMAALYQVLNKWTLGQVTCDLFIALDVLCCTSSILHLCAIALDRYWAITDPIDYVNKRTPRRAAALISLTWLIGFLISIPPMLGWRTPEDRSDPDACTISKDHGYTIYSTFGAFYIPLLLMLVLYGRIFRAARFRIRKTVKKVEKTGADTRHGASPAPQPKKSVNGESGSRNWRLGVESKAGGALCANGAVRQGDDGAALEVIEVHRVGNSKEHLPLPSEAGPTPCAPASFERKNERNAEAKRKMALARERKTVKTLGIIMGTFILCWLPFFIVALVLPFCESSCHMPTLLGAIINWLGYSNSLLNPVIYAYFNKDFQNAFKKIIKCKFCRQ
# Target: 5-hydroxytryptamine receptor 1A (Homo sapiens, UniProt P08908)
smiles,measurement,value
CNS(=O)(=O)Cc1ccc2[nH]cc(CCN(C)C)c2c1 [Sumax],Ki,255 nM
